# Ab-14 light chain CDR variants: yeast mating affinities

Antigen: PDVDLGDISGINAS, a 14-residue peptide of the SARS-CoV-2 spike HR2 region.

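The parent was found by panning a naive human phage display library on the peptide. The variants were designed computationally from a first round of random CDR variants and then made and measured. Their group label is 14L_GP_Gen (GP: Gaussian process model; Gen: genetic algorithm; a sequence that several methods proposed may carry one label only). In AlphaSeq, yeast of one mating type display the scFv and yeast of the other type display the target. Pairs that bind mate more often; barcode pairs of the diploids are counted by sequencing. A regression on co-assayed BCL2-family reference pairs converts the normalised counts of each replicate to an apparent Kd. Mating was done six times.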

Each scFv is VH, three GGGGS repeats, VL, as in the parent Ab-14, and differs from it in the CDRs of the light chain only.
VH: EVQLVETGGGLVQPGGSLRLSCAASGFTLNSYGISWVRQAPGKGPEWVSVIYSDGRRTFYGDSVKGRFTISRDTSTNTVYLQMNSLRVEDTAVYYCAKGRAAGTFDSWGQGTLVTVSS
VL: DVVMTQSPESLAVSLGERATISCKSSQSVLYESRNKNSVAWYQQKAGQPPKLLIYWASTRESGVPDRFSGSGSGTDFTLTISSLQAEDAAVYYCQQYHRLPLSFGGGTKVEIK

Variants are written as CDR1, CDR2 and CDR3 of the light chain (limits as in the source). Parent: KSSQSVLYESRNKNSVA, WASTRES, QQYHRLPLS.
The read-out is the apparent dissociation constant on a log10 scale (nM): the lower, the stronger.
A mean of the replicates is given; it leaves out those without a signal.
A pair that was not seen in that replicate is written "n.d."; this usually means weak binding, but a binder can also be missed.
In the paper, a design with two or fewer of six values counts as a poor binder.
As a blank, each scFv also met three strains without target: over all light chain designs, 4% of these pairings were detected, typically at 2.64 and seldom below 1.59. Also given: how often the same scFv was detected with the empty control strains, with their mean in brackets.
Values of this round are not directly comparable with the first-round values of the same sequences.
Of ten entries with the parent sequence, four were seen in most replicates (averages 0.34 to 2.37), three in one and three in none, so single entries are noisy.

{"CDR-L1": "KSPQSELYESRNKNSVA", "CDR-L2": "EASTRES", "CDR-L3": "QQYHRLPLS", "log10 Kd (nM) by replicate": "0.46 0.20 0.26 0.21 0.15 0.52", "log10 Kd (nM), mean": "0.30", "control signals": "0 of 18"}
{"CDR-L1": "KLSQSVLYESRNSNSVA", "CDR-L2": "NASTREM", "CDR-L3": "QQYHRLPLS", "log10 Kd (nM) by replicate": "-0.15 -0.23 -0.30 -0.35 -0.33 -0.18", "log10 Kd (nM), mean": "-0.26", "control signals": "1 of 18 (3.53)"}
{"CDR-L1": "KLSQSEEYESRNKNSVA", "CDR-L2": "NASTRMS", "CDR-L3": "QQYHRLPLS", "log10 Kd (nM) by replicate": "-0.17 -0.23 -0.26 -0.43 -0.45 -0.17", "log10 Kd (nM), mean": "-0.28", "control signals": "2 of 18 (2.62)"}
{"CDR-L1": "KFMQSQLYESRNKNSVA", "CDR-L2": "NASTRES", "CDR-L3": "QQYHRLPLS", "log10 Kd (nM) by replicate": "1.01 1.21 1.31 1.07 0.28 1.17", "log10 Kd (nM), mean": "1.01", "control signals": "0 of 18"}
{"CDR-L1": "KLSMSELYESRNKNSVA", "CDR-L2": "GASTRES", "CDR-L3": "QQYHRLPLS", "log10 Kd (nM) by replicate": "0.18 0.27 0.68 0.02 0.35 0.46", "log10 Kd (nM), mean": "0.33", "control signals": "0 of 18"}
{"CDR-L1": "KLYQSYLYESRNKNSVA", "CDR-L2": "NASQRES", "CDR-L3": "QQYHRLPLS", "log10 Kd (nM) by replicate": "0.95 1.26 0.83 0.34 1.97 0.33", "log10 Kd (nM), mean": "0.95", "control signals": "0 of 18"}
{"CDR-L1": "KLSQSVLYEERNKNSVA", "CDR-L2": "GASTRLS", "CDR-L3": "QQYHRLPLS", "log10 Kd (nM) by replicate": "-0.22 -0.30 -0.24 -0.47 -0.40 -0.29", "log10 Kd (nM), mean": "-0.32", "control signals": "2 of 18 (3.05)"}
{"CDR-L1": "KLSQSTLYESRNKNSVA", "CDR-L2": "EASTRES", "CDR-L3": "QQYHRLPLS", "log10 Kd (nM) by replicate": "0.91 0.57 0.64 0.49 0.47 1.05", "log10 Kd (nM), mean": "0.69", "control signals": "1 of 18 (2.65)"}
{"CDR-L1": "KLSQSVEYESRNKNSVA", "CDR-L2": "HASTRCS", "CDR-L3": "QQYHRLPLS", "log10 Kd (nM) by replicate": "0.49 0.10 0.35 0.13 0.23 0.23", "log10 Kd (nM), mean": "0.26", "control signals": "2 of 18 (2.16)"}
{"CDR-L1": "KVSQSFLYEQRNKNSVA", "CDR-L2": "NASTRES", "CDR-L3": "QQYHRLPLS", "log10 Kd (nM) by replicate": "0.17 -0.02 -0.14 -0.25 -0.26 -0.08", "log10 Kd (nM), mean": "-0.10", "control signals": "0 of 18"}
{"CDR-L1": "KLSQSELYESRNKNSVA", "CDR-L2": "NASTRLS", "CDR-L3": "QDYHRLPLS", "log10 Kd (nM) by replicate": "-0.26 -0.38 -0.63 -0.51 -0.10 0.13", "log10 Kd (nM), mean": "-0.29", "control signals": "1 of 18 (1.92)"}
{"CDR-L1": "KFEQSELYESRNKNSVA", "CDR-L2": "EASTRES", "CDR-L3": "QQYHRLPLS", "log10 Kd (nM) by replicate": "-0.47 -0.51 -0.40 -0.57 -0.45 -0.46", "log10 Kd (nM), mean": "-0.48", "control signals": "1 of 18 (2.76)"}
{"CDR-L1": "KLSQSQLYESRNKNSVA", "CDR-L2": "SASTRES", "CDR-L3": "QQYHRLPLS", "log10 Kd (nM) by replicate": "-0.45 -0.25 -0.47 -0.57 -0.57 -0.24", "log10 Kd (nM), mean": "-0.42", "control signals": "2 of 18 (3.64)"}
{"CDR-L1": "KHSQSVLMESRNKNSVA", "CDR-L2": "EASTRES", "CDR-L3": "QQYHRLPLS", "log10 Kd (nM) by replicate": "3.11 n.d. n.d. 1.86 n.d. 1.89", "log10 Kd (nM), mean": "2.29", "control signals": "1 of 18 (2.39)"}
{"CDR-L1": "KVSQSVLYESRNKQSVA", "CDR-L2": "DASTRES", "CDR-L3": "QQYHRLPLS", "log10 Kd (nM) by replicate": "-0.02 -0.16 -0.14 -0.29 -0.17 0.09", "log10 Kd (nM), mean": "-0.12", "control signals": "3 of 18 (2.79)"}
{"CDR-L1": "KVSQSWLYESRNKNSVA", "CDR-L2": "NASTRES", "CDR-L3": "QQYHRLPLS", "log10 Kd (nM) by replicate": "0.15 -0.10 -0.12 -0.19 -0.15 -0.07", "log10 Kd (nM), mean": "-0.08", "control signals": "1 of 18 (2.03)"}
{"CDR-L1": "KLQQSVLYESRNKNSVA", "CDR-L2": "GASQRES", "CDR-L3": "QQYHRLPLS", "log10 Kd (nM) by replicate": "0.01 -0.06 -0.17 -0.26 -0.10 0.04", "log10 Kd (nM), mean": "-0.09", "control signals": "2 of 18 (2.27)"}
{"CDR-L1": "KLSQSMLYESRNKNSVA", "CDR-L2": "SASQRES", "CDR-L3": "QQYHRLPLS", "log10 Kd (nM) by replicate": "0.49 0.24 0.22 0.55 0.51 0.53", "log10 Kd (nM), mean": "0.42", "control signals": "0 of 18"}
{"CDR-L1": "KLQQSVLYESRNKNSVA", "CDR-L2": "GASTRED", "CDR-L3": "QQYHRLPLS", "log10 Kd (nM) by replicate": "0.25 0.20 -0.19 0.02 -0.22 0.04", "log10 Kd (nM), mean": "0.02", "control signals": "1 of 18 (3.24)"}
{"CDR-L1": "KLSQSELYESRNKNSVA", "CDR-L2": "DASTRCS", "CDR-L3": "QQYHRLPLS", "log10 Kd (nM) by replicate": "-0.22 -0.18 -0.36 -0.39 -0.30 -0.16", "log10 Kd (nM), mean": "-0.27", "control signals": "2 of 18 (3.30)"}
{"CDR-L1": "KSQQSELYESRNKNSVA", "CDR-L2": "NASQRLS", "CDR-L3": "QQYHRLPLS", "log10 Kd (nM) by replicate": "0.21 0.14 0.19 0.05 -0.31 0.23", "log10 Kd (nM), mean": "0.08", "control signals": "2 of 18 (2.17)"}
{"CDR-L1": "KLYQSVLYESRNKNSVA", "CDR-L2": "NASTREQ", "CDR-L3": "QQYHRLPLS", "log10 Kd (nM) by replicate": "0.40 -0.14 -0.01 -0.08 -0.10 0.20", "log10 Kd (nM), mean": "0.04", "control signals": "1 of 18 (2.32)"}

2 of these entries, quoted again:

| CDR-L1 | CDR-L2 | CDR-L3 | log10 Kd (nM) by replicate | log10 Kd (nM), mean | control signals |
|---|---|---|---|---|---|
| KLSQSEEYESRNKNSVA | NASTRMS | QQYHRLPLS | -0.17 -0.23 -0.26 -0.43 -0.45 -0.17 | -0.28 | 2 of 18 (2.62) |
| KLSQSVEYESRNKNSVA | HASTRCS | QQYHRLPLS | 0.49 0.10 0.35 0.13 0.23 0.23 | 0.26 | 2 of 18 (2.16) |

Source: Li et al. 2023 (doi:10.1038/s41467-023-39022-2), MIT Lincoln Laboratory and A-Alpha Bio; data file from the FLAb repository.